Measured values: patent publication US9617304B2, “Pharmaceutical composition containing an endocytic motif and protein transduction domains for preventing or treating cancer” (Korea Research Institute Of Bioscience And Biotechnology, priority 2011, dated 2017)

Test system: COS-7 cells
Assay: Endocytosis of Tac chimeric proteins expressed in COS-7 cells, fluorescence microscopy
Type: cell-based
Settings: COS-7, 4° C. to 37° C.
Method: Each of plasmid DNAs encoding Tac chimeric proteins illustrated in FIG. 2 was expressed in COS-7 cell line to induce endocytosis. To quantify endocytosis percentage, the following method was used. First, plasmid DNA was transfected into COS-7 cell line, and next day, cells were suspended in DMED supplemented with 10% FBS, and seeded onto an 8-well slide glass (Thermo, 154534) to 50% confluency. Next day, to block endocytosis, cells were transferred at 4° C. and left for 30 minutes. Anti-Tac (BD BIOSCIENCES, 347640) antibody was diluted in DMEM supplemented with 10% FBS at a ratio of 1:10, and treated at 4° C. for 30 minutes. The cells were washed with medium three times. […] Next day, the sample was examined by fluorescence microscopy (Olympus IX2-UCB). […] To quantify endocytosis of Tac chimeric proteins expressed in COS-7 cells over time, the following Equation was used. […] As such, green fluorescence intensity indicates the amount of cell surface Tac, and red fluorescence intensity signifies those of endocytosed Tac plus partial cell surface Tac. […] Partially detected surface Tac by anti-mouse IgG-ALEXA FLUOR 568 was measured by comparing fluorescence intensity between green and red at 0 min in which no endocytosis occurred. Red fluorescence intensity was 0.429-fold or green fluorescence intensity at 0 min, which was defined as α. […]

B1: Tac ECD: extracellular domain of Tac (CD25) protein; itself does not induce endocytosis (protein, UniProt P01589 22-240, looked up)
extracellular domain: ELCDDDPPEIPHATFKAMAYKEGTMLNCECKRGFRRIKSGSLYMLCTGNSSHSSWDNQCQCTSSATRNTTKQVTPQPEEQKERKTTEMQSPMQPVDQASLPGHCREPPPWENEATERIYHFVVGQMVYYQCVQGYRALHRGPAESVCKMTHGKTRWTQPQLICTGEMETSQFPGEEKPQASPEGRPESETSCLVTTTDFQIQTEMAATMETSIFTTEYQ
modifications: extracellular domain
- endocytosis of the chimeric protein: not observed
